Earlier results in patent US20230096856A1, “COMBINED TREATMENT REGIMEN OF […]/SEDATION WITH ADMINISTRATION OF P[…] ASSOCIATED WITH REDUCTION IN NEUROP[…]” (priority 2021, published 2023).
Entries after “also recorded” stand apart in the source; their conditions may differ.

Protein sequences, listed by entry. Tags and fused reporters are not part of them.
UniProt P50406, whole entry, species assumed: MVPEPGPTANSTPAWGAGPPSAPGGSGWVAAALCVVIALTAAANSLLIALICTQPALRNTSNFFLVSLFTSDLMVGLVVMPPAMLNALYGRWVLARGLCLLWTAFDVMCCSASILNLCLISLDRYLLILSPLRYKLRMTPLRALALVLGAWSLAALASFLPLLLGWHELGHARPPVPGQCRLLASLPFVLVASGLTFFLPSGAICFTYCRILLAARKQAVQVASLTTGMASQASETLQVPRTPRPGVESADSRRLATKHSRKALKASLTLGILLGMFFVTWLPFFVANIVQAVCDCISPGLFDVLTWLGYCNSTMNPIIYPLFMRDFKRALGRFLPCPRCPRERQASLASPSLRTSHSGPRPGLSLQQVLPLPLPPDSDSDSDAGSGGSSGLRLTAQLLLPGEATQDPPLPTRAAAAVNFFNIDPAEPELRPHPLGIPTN
UniProt P28223, whole entry: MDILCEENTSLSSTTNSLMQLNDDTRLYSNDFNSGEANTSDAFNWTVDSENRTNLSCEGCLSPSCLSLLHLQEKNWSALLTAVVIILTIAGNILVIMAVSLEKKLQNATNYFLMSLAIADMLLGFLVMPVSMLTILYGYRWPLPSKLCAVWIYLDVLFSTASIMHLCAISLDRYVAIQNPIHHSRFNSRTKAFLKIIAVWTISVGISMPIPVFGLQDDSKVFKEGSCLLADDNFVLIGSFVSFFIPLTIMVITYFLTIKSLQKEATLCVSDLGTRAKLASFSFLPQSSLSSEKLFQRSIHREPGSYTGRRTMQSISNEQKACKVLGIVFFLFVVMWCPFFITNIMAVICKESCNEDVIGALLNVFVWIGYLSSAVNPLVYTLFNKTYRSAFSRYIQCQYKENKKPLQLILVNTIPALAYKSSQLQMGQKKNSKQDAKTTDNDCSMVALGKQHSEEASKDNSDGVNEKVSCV
UniProt P08908, whole entry, species assumed: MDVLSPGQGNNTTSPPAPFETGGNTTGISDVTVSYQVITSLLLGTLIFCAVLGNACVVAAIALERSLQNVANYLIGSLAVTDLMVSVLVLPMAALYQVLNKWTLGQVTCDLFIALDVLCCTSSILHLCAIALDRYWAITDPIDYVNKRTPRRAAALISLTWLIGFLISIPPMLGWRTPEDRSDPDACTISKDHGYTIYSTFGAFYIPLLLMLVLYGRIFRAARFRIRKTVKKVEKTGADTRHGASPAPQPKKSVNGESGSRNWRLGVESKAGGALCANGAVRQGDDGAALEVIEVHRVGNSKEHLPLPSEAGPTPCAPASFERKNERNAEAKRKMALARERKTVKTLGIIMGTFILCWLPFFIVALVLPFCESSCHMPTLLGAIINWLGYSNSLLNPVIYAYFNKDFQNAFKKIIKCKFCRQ
UniProt P28221, whole entry, species assumed: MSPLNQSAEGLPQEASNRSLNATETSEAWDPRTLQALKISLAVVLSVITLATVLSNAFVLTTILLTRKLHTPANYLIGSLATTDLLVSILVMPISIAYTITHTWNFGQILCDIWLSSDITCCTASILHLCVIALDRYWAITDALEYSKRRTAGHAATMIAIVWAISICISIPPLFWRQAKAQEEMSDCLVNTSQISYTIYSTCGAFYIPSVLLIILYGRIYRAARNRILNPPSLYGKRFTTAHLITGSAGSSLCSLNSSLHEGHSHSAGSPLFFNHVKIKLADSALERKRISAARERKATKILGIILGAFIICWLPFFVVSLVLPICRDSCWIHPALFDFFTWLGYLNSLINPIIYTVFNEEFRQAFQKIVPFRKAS
UniProt P34969, whole entry, species assumed: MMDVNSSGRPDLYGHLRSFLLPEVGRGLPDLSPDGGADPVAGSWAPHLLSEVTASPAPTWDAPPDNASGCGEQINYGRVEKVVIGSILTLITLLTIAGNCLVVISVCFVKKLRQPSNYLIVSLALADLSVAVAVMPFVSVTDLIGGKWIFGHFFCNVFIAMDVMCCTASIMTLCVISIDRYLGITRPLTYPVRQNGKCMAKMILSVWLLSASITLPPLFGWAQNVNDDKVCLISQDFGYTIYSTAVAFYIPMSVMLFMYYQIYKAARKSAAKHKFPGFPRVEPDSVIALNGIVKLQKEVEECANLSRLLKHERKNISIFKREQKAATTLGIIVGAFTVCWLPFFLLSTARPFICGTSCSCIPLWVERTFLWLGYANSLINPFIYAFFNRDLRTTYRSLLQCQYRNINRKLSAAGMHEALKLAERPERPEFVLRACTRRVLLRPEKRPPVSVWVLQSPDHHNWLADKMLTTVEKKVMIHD

Key:
5-HT6 = 5-HT6 (Homo sapiens, UniProt P50406)
5HT2a = 5HT2a (Homo sapiens, UniProt P28223)
5-HT1a = 5-HT1a (Homo sapiens, UniProt P08908)
5-HT1d = 5-HT1d (Homo sapiens, UniProt P28221)
5-HT7 = 5-HT7 (Homo sapiens, UniProt P34969)

Compound: COc1ccc2[nH]cc(CCN(C)C)c2c1 [5-MeO-DMT, 5-5-Methoxy-N,N-dimethyltryptamine]
- affinity for 5-HT6 (5-HT6): lessor affinity
- affinity for 5HT2a (5HT2a): high affinity
- affinity for 5-HT1a (5-HT1a): high affinity
- affinity for 5-HT1d (5-HT1d): lessor affinity
- affinity for 5-HT7 (5-HT7): lessor affinity; also recorded: shows binding activity
